{"source": "patent US20080300263A1", "about": "“Pyrazolo [1,5-a] pyrimidine compounds and pharmaceutical compositions containing them” (EiRx Therapeutics plc, priority 2005, published 2008)", "origin": "cited, not measured here", "tested_on": "tumors that express EGFR", "conditions": "patients with EGFR-expressing tumors no longer responding to irinotecan; cited from earlier work"}
{"substance": "Erbitux: genetically engineered version of a mouse antibody with human and mouse components, targeting epidermal growth factor receptor (EGFR)", "values": [{"measurement": "delay of tumor growth", "value": 1.5, "unit": "months"}, {"measurement": "tumor response rate (patients whose tumors shrank)", "value": 10.8, "unit": "%"}]}
